# Source: PubChem BioAssay (National Center for Advancing Translational Sciences (NCATS))
# This is a sample that favours compounds with a hit; in the whole collection about 3.7% have one here.
# IL2 activator – IL-2 activation; activation, % (series mostly up to about 46 µM); actives 0.065% (n = 360,000); IL-2 activation reporter assay, cell-based qHTS; stimulated with anti-CD3/CD4/CD28 beads; in transgenic mouse T cells; in the data active = activation above about 50%; inconclusive = mostly about 30% to 49%
#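 Using fluorescent plate cytometry, EGFP and DsRed are detected in transgenic mouse T cells stimulated 18 h at 37 degrees C with antibody-coated beads after 60 min compound pretreatment.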
# miR-21 reporter – miR-21 reporter, rising signal. 340,000 tested, under 10 active. Potency, µM (highest dose often 38.3 µM). HeLa miR-21 FLuc reporter, luciferase, 48 h. AID 2288; active = well fitted rising curve with a large enough effect; inconclusive = small, poorly fitted or top-dose-only effect; inactive = no such curve, though single readings can be large or run the other way;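 further: miR-21 action dims this reporter so a rising signal means less miR-21 action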
#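 Compounds were titrated across several concentrations (up to approximately 40 uM) and incubated 48 hours with HeLa miR-21-FLuc reporter cells (miR-21 target sequence downstream of FLuc, endogenous miR-21). Readout was firefly luciferase luminescence after lytic detection reagent.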
# Nrf2 activator – Nrf2 pathway activation. AREc32 ARE-luciferase reporter (MCF7-derived line), luminescence, 24 h. actives 0.31% (n = 410,000). Potency, µM (doses to about 46.1 µM), most hits filed as activators; note: nearly all actives have a fitted effect of over 65% in size
#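 AREc32_Fluc, 1000 cells/well, OPTI-MEM + 5% FBS, o/n 37 deg C 5% CO2; 23 nL cpd by pin tool, 24 hr; Steady-Glo 30 min RT, luminescence.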
# Nrf2 block – blocks Nrf2 signaling | AID 504444 | Potency, µM (doses to about 46 µM), actives largely listed as inhibitors | A549 ARE-Fluc reporter, luciferase luminescence, 18-24 h | actives 2.1% (n = 360,000); note: nearly all actives have a fitted effect of over 60% in size
#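 Concentration-response testing used A549 ARE_Fluc cells at 5000 cells/well. Following an 18-24 h compound incubation, viability was read by fluorescence (Ex 405/Em 525) and luciferase output by luminescence.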
# ClpP mod – qHTS Assay for Activators of ClpP. ATP-dependent Clp protease proteolytic subunit (Bacillus subtilis (strain 168)), P80244. purified B. subtilis ClpP, FRET peptide cleavage, 20 min. Potency, µM (highest dose often 57.5 µM). actives 1.9% (n = 340,000). AID 651965, 2013; active = well fitted falling curve with a large enough effect; inconclusive = small, poorly fitted or top-dose-only effect; inactive = no such curve, though single readings can be large or run the other way; note: the source files actives as falling curves though it sought activators and does not explain the sign; nearly all actives have a fitted effect of over 65% in size
#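 ClpP 10 microg/mL final, pH 8 Tris/KCl buffer with BSA, glycerol, Tween-20; compound pinned in; FRET-FV substrate; RT 20 min; Ex320/Em430; ΔFRET vs ADEP 5.8 microM, DMSO, no enzyme.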
# A549 tox – kills or reduces viability of A549 cells in Nrf2 counter-screen; AID 504648; A549 ARE-Fluc cells, CellTiter-Fluor viability, 18-24 h; Potency, µM (titrated, usually from 46 µM), usual class: inhibitors; actives 0.16% (n = 390,000)
#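 A549 ARE-Fluc cells in 5% FBS OPTI-MEM, 5000 cells/well, rested 2 h then exposed to compounds in concentration-response for 18-24 h at 37 °C. Viability by CellTiter-Fluor fluorescence (Ex 405/Em 525) after 30 min; luciferase luminescence (BugLite, 15 min, RT) read afterwards.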
# Hits are given with their value; i = inactive; ? = inconclusive; nt = no result. Unless noted, calls come from the whole dose curve; as a rule, active = well fitted curve in the direction sought with a large enough effect; inconclusive = small, poorly fitted or top-dose-only effect, or another doubt; inactive = no such curve, though single readings can be large; an effect the other way counts as inactive or inconclusive.
SMILES,IL2 activator,miR-21 reporter,Nrf2 activator,Nrf2 block,ClpP mod,A549 tox
Cc1ccc(S(=O)(=O)c2nnn(-c3ccc(F)c(Cl)c3)c2N)cc1,nt,i,i,nt,i,i
CCOc1ccc(CNC(=O)c2ccc3nc(Cc4ccc(OC)cc4)oc3c2)cc1OC,nt,i,i,nt,i,i
COc1cc2nc(N3CCOCC3)nc(NC3CCN(Cc4ccccc4)CC3)c2cc1OC,nt,nt,nt,nt,i,nt
Nc1ccccc1Nc1ccccc1,i,i,i,?,28µM,?
Nc1ccc(Nc2ccccc2)c(Cl)c1,i,i,i,i,i,i
O=C(CC1N=C2c3ccccc3N=C(SCc3ccccc3Cl)N2C1=O)NC1CCCCC1 (stereo unspecified),nt,i,i,nt,i,i
O=C(CSC1=Nc2ccccc2C2=NC(c3ccccc3)C(=O)N12)NC1CCCCC1 (stereo unspecified),i,i,i,i,11µM,i
CN(C(=O)CSC1=Nc2ccccc2C2=NC(c3ccccc3)C(=O)N12)C1CCCCC1 (stereo unspecified),i,i,i,i,25µM,i
COC(=O)c1ccc(NC(=O)CC2C(=O)N(c3ccc(Cl)cc3)C(=O)N2Cc2cccs2)cc1 (stereo unspecified),nt,i,i,?,i,i
COc1ccc(-c2nc(-c3ccc(NC(=O)c4ccncc4)cc3)no2)cc1OC,i,i,i,13µM,i,i
COc1ccc(Cl)cc1-c1nc(-c2ccc(NC(=O)c3ccncc3)cc2)no1,i,nt,i,i,i,i
COc1cc(-c2nc(-c3ccc(NC(=O)c4ccc5c(c4)OCO5)cc3)no2)cc(OC)c1OC,i,i,i,?,20µM,?
Cc1ccc(-n2c(O)c(/C=N/Nc3ccc(S(=O)(=O)N4CCOCC4)cc3[N+](=O)[O-])c3ccccc3c2=O)c(C)c1,i,?,i,18µM,i,?
CNC(=O)c1ccc2nc(-c3ccco3)c(-c3ccco3)nc2c1,nt,nt,nt,i,i,i
CCOC(=O)N1CCN(C(=O)c2ccc(CSc3ccc(Cl)cc3)cc2)CC1,i,i,i,18µM,nt,i
CN1CCN(C(=O)c2ccc(Oc3ccc([N+](=O)[O-])cc3)cc2)CC1,i,i,i,i,nt,i
CN1CCN(C(=O)c2ccc(CSc3ccc(Cl)cc3)cc2)CC1,i,i,i,?,?,i
CCOC(=O)N1CCN(C(=O)c2ccc(Oc3ccc([N+](=O)[O-])cc3)cc2)CC1,i,i,i,26µM,nt,i
CN(C(=O)CCc1nc(-c2ccccc2F)no1)c1ccc(Cl)cc1,nt,i,i,i,i,i
Cc1cc(C)n(C(C)CC(=O)Nc2cccc(C(F)(F)F)c2)n1 (stereo unspecified),nt,i,i,?,i,i
Cn1nccc1NC(=O)Nc1cccc(Cl)c1Cl,i,i,i,16µM,nt,i
Cn1nc(-c2ccncc2)nc2c(=O)n(C)c(=O)nc1-2,nt,nt,nt,2.3µM,i,2.9µM
CCCCNC(=S)N(Cc1c(C)noc1C)c1ccccc1,i,i,i,i,4µM,i
CCNC(=S)N(Cc1c(C)noc1C)c1ccccc1,i,i,i,i,i,i
COc1ccccc1/C=C/C(=O)Nc1ccc(N2CCOCC2)cc1,i,i,i,12µM,nt,i
SMILES,IL2 activator,miR-21 reporter,Nrf2 activator,Nrf2 block,ClpP mod,A549 tox
COc1ccccc1/C=C/C(=O)OC(C)CN1CCOCC1 (stereo unspecified),i,i,i,i,32µM,i
O=C(C1CCC(Cn2c(=O)c3sccc3n(Cc3cccc(F)c3)c2=O)CC1)N1CCOCC1 (stereo unspecified),nt,i,i,i,i,i
CCc1cc(=O)[nH]c(SCc2nc(-c3ccc(C(F)(F)F)cc3)no2)n1,nt,i,i,nt,i,i
COc1ccccc1-n1cc2ccc([N+](=O)[O-])cc2n1,i,nt,11µM,?,i,i
COc1ccc(C(=O)NCc2ccc3c(c2)CCN3C(C)=O)c(OC)c1,nt,i,i,nt,i,i
COc1cc(/C=C2\C=Cc3ccccc32)ccc1N(C)C,nt,nt,nt,nt,i,nt
N#C/C(=C\c1ccc(Cl)cc1)c1nc(-c2cc3ccccc3oc2=O)cs1,nt,i,i,i,i,i
CC1CCC(=C(C#N)c2nc(-c3cc4ccccc4oc3=O)cs2)CC1 (stereo unspecified),i,i,i,?,3.5µM,i
CC(C)c1ccc(NC(=O)c2cccc3c2C(=O)N(C2CCCCC2)C3)cc1,nt,i,i,?,i,i
COc1cc(OC)c(OC)cc1/C=C/c1ccc2ccccc2[n+]1C,nt,nt,nt,nt,i,nt
CCOC(=O)N1CCN(S(=O)(=O)c2ccc(C(=O)Nc3ccc4c(c3)C(=O)NC4=O)cc2)CC1,i,i,i,i,20µM,i
Cc1ccc(NC(=O)C2CCN(S(=O)(=O)c3ccc(F)cc3)CC2)cc1,i,i,i,i,i,i
Cc1ccc(S(=O)(=O)N2CCC(C(=O)NCCCn3ccnc3)CC2)cc1,i,i,i,i,16µM,i
O=C(Nc1ccc(S(=O)(=O)N2CCCCC2)cc1)c1ccc(F)cc1,i,i,i,29µM,nt,i
CSc1ccc(S(=O)(=O)N2CCC(C(=O)NCCCn3ccnc3)CC2)cc1,i,i,i,i,i,i
O=C(Nc1ccc(S(=O)(=O)N2CCCC2)cc1)C1CCN(S(=O)(=O)c2ccc(F)cc2)CC1,i,nt,i,23µM,?,i
Cc1cc(C)cc(NC(=O)C2CC(=O)N(c3ccccc3)C2)c1 (stereo unspecified),nt,i,i,i,i,i
C(=C1C=c2ccccc2=C1)c1ccc(N=Nc2ccc(C=C3C=c4ccccc4=C3)cc2)cc1,nt,nt,nt,nt,i,nt
Cc1ccc(NC(=O)C2CCN(S(=O)(=O)c3ccccc3)CC2)cc1,i,i,i,15µM,nt,i
O=C(Nc1ccccc1)C1CCN(S(=O)(=O)c2ccc3[nH]c4c(c3c2)CCCCC4)CC1,nt,i,i,16µM,?,i
CC(=O)N1CCOc2ccc(S(=O)(=O)N3CCC(C(=O)Nc4ccc(C)cc4)CC3)cc21,i,i,i,?,i,i
O=C(Nc1ccc(Cc2ccncc2)cc1)c1ccc(S(=O)(=O)N2CCOCC2)cc1,i,i,i,9.2µM,i,i
CCc1ccc(NC(=O)C2CCN(S(=O)(=O)c3ccc4c(c3)N(C(C)=O)CCO4)CC2)cc1,i,i,i,23µM,i,i
Cc1ccc(S(=O)(=O)N2CCC(C(=O)Nc3ccc(S(=O)(=O)N4CCOCC4)cc3)CC2)cc1,i,nt,i,?,i,i
Cc1ccc(S(=O)(=O)c2nc(-c3cccc(C)c3)oc2N2CCCCC2)cc1,nt,i,i,?,i,i
O=C(Nc1ccc(Cl)cc1F)c1cnc2sc(N3CCOCC3)nn2c1=O,nt,i,i,i,i,i
